Assay: Solubilization, appearance and pH of penicillin solutions
Assay type: physicochemical
Experimental: According to the embodiments, the pH achieved at solubilization was at what was generally understood to be an insoluble range for normal penicillin solutions. […] Because of the lower pH of these clear solutions, it was theorized that the penicillin, according to the embodiments, could lead to better stability of the product compared to other known methods of solubilization. […] Some embodiments of the penicillin solutions maintained greater than 80% potency at 24 hours. According to some embodiments, the term “high potency” can be a potency at or above 80% at 24 hours at room temperature. […] The term “high potency” can be a potency at or above 87% at 24 hours at room temperature, according to some embodiments. The term “high potency” can be a potency at or above 89% at 24 hours at room temperature, according to some embodiments. The term “high potency” can be a potency at or above 90% at 24 hours at room temperature, according to some embodiments. The term “high potency” can be a potency above 90% at 24 hours at room temperature, according to some embodiments. The term “high potency” can be a potency at or above 91% at 24 hours at room temperature, according to some embodiments. The term “high potency” can be a potency above 91% at 24 hours at room temperature, according to some embodiments. […]

For `C/C=C/C=C/C(=O)[O-].[K+]` [potassium sorbate], the “reduction of the requirement of alkaline base or other alkaline solubilizers” value (compared to what was generally understood to be required) was no less than 10 × and the “dissolution of capsule fragments” value (penicillin powder compounded from capsules, with potassium sorbate) was “dissolution of the capsule fragments without altering the stability of the product”.
